# Assay results reported in patent publication US20020164707A1, “Calcitonin gene related peptide receptor” (Human Genome Sciences, Inc., priority 1994, published 2002).
# Tested on: untransfected 293 cells
# Assay: cAMP response in untransfected control 293 cells
# Assay type: cell-based, human
# Description: Values represent the mean plus/minus SEM.
# FIG. 6. Dose response of human CGRP-mediated cAMP accumulation in 293 cells (clone 22 cells from FIG. 5) stably transformed with the CGRP receptor cDNA. Each data point represents the mean of triplicate determinations.
# The DNA sequence encoding CGRP receptor polypeptide, ATCC # 75824, was re-configured for -expression (with and without a C-terminal DET tag ([…])) in the mammalian expression vector PCDN. This involved the removal of the entire 3′ and 5′ untranslated regions along with two cryptic methionine residues at putative amino acid positions −11 and −1 located upstream from the chosen methionine that could potentially negatively influence the expression. To increase the efficiency of expression, a flanking Kozak consensus sequence (CCACC) was added to the chosen start methionine residue. The resulting constructs were separately transfected into both COS and Human Kidney 293 cells by DEAE dextran sulfate and Lipofectin reagent protocols, respectively. For transient expression cells were assayed at 72 hours post-transfection for the accumulation of cAMP in response to ligand exposure. […] For stable cell lines the transfected 293 cells were selected in the presence of 400 μg/ml of Geneticin (G418 Sulfate) and assayed for the accumulation of cAMP in response to CGRP.
smiles,measurement,setting,value
CC(C)C[C@H](NC(=O)CNC(=O)[C@H](C)NC(=O)[C@H](CC(C)C)NC(=O)[C@H](CCCNC(=N)N)NC(=O)[C@H](Cc1c[nH]cn1)NC(=O)[C@@H](NC(=O)[C@@H](NC(=O)[C@@H]1CSSC[C@H](NC(=O)[C@H](C)N)C(=O)N[C@@H](CC(=O)O)C(=O)N[C@@H]([C@@H](C)O)C(=O)N[C@@H](C)C(=O)N[C@@H]([C@@H](C)O)C(=O)N1)C(C)C)[C@@H](C)O)C(=O)N[C@@H](CC(C)C)C(=O)N[C@@H](CO)C(=O)N[C@@H](CCCNC(=N)N)C(=O)N[C@@H](CO)C(=O)NCC(=O)NCC(=O)N[C@H](C(=O)N[C@H](C(=O)N[C@@H](CCCCN)C(=O)N[C@@H](CC(N)=O)C(=O)N[C@@H](CC(N)=O)C(=O)N[C@@H](Cc1ccccc1)C(=O)N[C@H](C(=O)N1CCC[C@H]1C(=O)N[C@H](C(=O)N[C@@H](CC(N)=O)C(=O)N[C@H](C(=O)NCC(=O)N[C@@H](CO)C(=O)N[C@@H](CCCCN)C(=O)N[C@@H](C)C(=O)N[C@@H](Cc1ccccc1)C(N)=O)C(C)C)[C@@H](C)O)C(C)C)C(C)C)C(C)C [human CGRP],change in cAMP response,"0.3 μM human CGRP, untransfected cells (control)",no change
same,stimulation of cAMP accumulation,"control untransfected 293 cells, 1,000 nM concentration",two-fold stimulation
